Data from patent US7700775B2, “Compounds and compositions for delivering active agents” (Emisphere Technologies, Inc., priority 2001, dated 2010).

Experiment: Insulin - Oral Delivery (serum human insulin by ELISA after oral dosing of delivery agent compound + human zinc insulin)
Settings: human insulin alone (no delivery agent), previous experiments
Method: Oral dosing (PO) compositions of delivery agent compound and human zinc insulin (minimum 26 IU/mg available from Calbiochem—Novabiochem Corp, La Jolla, Calif.) were prepared in deionized water. […] The solution was vortexed, then heated (about 37° C.) and sonicated. The pH was adjusted to about 7 to 8.5 with NaOH or HCl. […] About 1.25 mg insulin from an insulin stock solution (15 mg/ml made from 0.5409 g insulin and 18 ml deionized water, adjusting with HCl and NaOH to pH 8.15 and to obtain a clear solution using 40 ml concentrated HCl, 25 ml 10N NaOH and 50 ml 1N NaOH) was added to the solution and mixed by inverting. […] The final delivery agent compound dose, insulin dose and dose volume amounts are listed below in Table 1.
The typical dosing and sampling protocols were as follows. […] A dosing group of five animals was administered one of the dosing solutions. […] The dosing solution was administered by pressing the syringe plunger.
Serum insulin levels were determined with an Insulin ELISA Test Kit (Kit # DSL-10-1600 from Diagnostic Systems Laboratories, Inc., Webster, Tex.), modifying the standard protocol in order to optimize the sensitivity and linear range of the standard curve for the volumes and concentrations of the samples used in the present protocol. […] The five values for each time point were averaged and the results plotted as serum insulin concentration versus time.

For human insulin, the “serum human insulin following oral dosing with human insulin alone” value was “no measurable levels”.
